In PubChem BioAssay AID1671193 (National Center for Advancing Translational Sciences (NCATS), 2021):
Only a part is listed here, and it is no random draw. Inconclusive results are not listed. Activity calls are given as the source filed them. Calls come from the whole dose curve; as a rule, active = well fitted cell-killing curve with a large enough effect; inconclusive = small, poorly fitted or top-dose-only effect, or effect the other way; inactive = flat fitted curve, though single readings scatter.

Assay: GF-AFC viability counterscreen for inhibitors of alpha-synuclein gene (SNCA) expression;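 note: 0% = DMSO-treated cells and -100% = medium-only wells without cells; nearly all actives have a fitted effect of over 30% in size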
Conditions: HEK-293-SNCA-luc viability, GF-AFC fluorescence, 24 h
Text: Assay Submitter (PI): Daniel R. Scoles Ph.D.
Department of Neurology, University of Utah, Salt Lake City, Utah
Accumulation of alpha-synuclein is a main underlying pathological feature of Parkinson's disease (PD) and alpha-synucleinopathies, for which lowering expression of the alpha-synuclein gene (SNCA) is a potential therapeutic avenue. Using a cell-based luciferase reporter of SNCA expression we performed a quantitative high throughput screen (qHTS) of 155,885 compounds in dose response. The screening assay was generated using genome editing to insert the luciferase gene downstream and in frame of the SNCA gene in HEK-293 cells (1). A viability counterscreen using GF-AFC was used to eliminate cytotoxic and false positive compounds. After in silico analysis (clustering, removal of frequent hitter nuisance chemotypes), inhibitor compounds from the primary screen were selected for follow up and re-tested at 11-doses in the SNCA-luc cells (luciferase and GF-AFC confirmation), and in CMV-luc expressing cell line to flag general transcriptional repressors.
Described herein are the results of the GF-AFC viability counterscreen for SNCA inhibitors; inactivity (no decrease in fluorescence signal, not cytotoxic) is the desired output for this assay.
1. Dansithong, W., Paul, S., Scoles, D. R., Pulst, S. M., and Huynh, D. P. (2015) Generation of SNCA Cell Models Using Zinc Finger Nuclease (ZFN) Technology for Efficient High-Throughput Drug Screening. PLoS ONE 10, e0136930.
SEQUENCE No. (e.g., 1, 2, 3, etc.); […] (e.g., Cells, Incubation, Reagent, etc.); VALUE; DESCRIPTION
1; Cells; 4 uL; Dispense 1500 HEK-293-SNCA-luc cells/well into Greiner 1536-well white / solid bottom tissue culture treated plate. The plate was covered with metal lids with gas-exchange holes.
2; Incubate; 24 hours; Incubate at 37C, 5% CO2, 95% RH.
3; Compounds; 23 nL; Compounds and controls were transferred via a Kalypsys Pin Tool (Wako USA) equipped with a 1536-slotted pin array. The plate was covered with metal lids with gas-exchange holes.
4; Incubate; 24 hours; Incubate at 37C, 5% CO2, 95% RH.
5; Dispense; 1 uL; Dispense Gly-Phe-7-amino-4-trifluoromethylcoumarin (GF-AFC, prepared at 125 uM in PBS) was added. The plate was covered with metal lids with gas-exchange holes.
6; Incubate; 30 min; Incubate at 37C, 5% CO2.
7; Detector; Fluorescence; Measure fluorescence with ViewLux microplate reader (PerkinElmer) equipped with 405/10 excitation and 540/25 emission filters.
8; Dispense; 3 uL; Dispense ONE-Glo ([…]) lucifase detection reagent was added to each well. […]
10; Detector; Luminescence; Measure luminescence with ViewLux microplate reader (PerkinElmer) equipped with clear filters. […]
10; Signals were analyzed, and dose-response curves were fit using the Hill equation. […]

SMILES	activity change, negative = cytotoxicity (at 57.1 µM (top of the series))	activity change, negative = cytotoxicity (at 23.9 µM (top of the series))
CCC(=O)N(c1ccccc1)C1(COC)CCN(CCn2nnn(CC)c2=O)CC1	inactive: 82.1%	–
CCC(=O)N(c1ccccc1)C1(COC)CCN(CCc2cccs2)CC1	inactive: 35.5%	–
CN(CCCl)CCCl	inactive: -7.43%	inactive: 40.8%
